Consider 14 compounds from patent US7192973B2, “Piperidine derivatives and their use as modulators of chemokine receptor activity (especially CCR5)” (AstraZeneca AB, priority 2001, dated 2007).

The chains behind the UniProt entries cited, without tags or fusion partners.
UniProt P51681, whole entry: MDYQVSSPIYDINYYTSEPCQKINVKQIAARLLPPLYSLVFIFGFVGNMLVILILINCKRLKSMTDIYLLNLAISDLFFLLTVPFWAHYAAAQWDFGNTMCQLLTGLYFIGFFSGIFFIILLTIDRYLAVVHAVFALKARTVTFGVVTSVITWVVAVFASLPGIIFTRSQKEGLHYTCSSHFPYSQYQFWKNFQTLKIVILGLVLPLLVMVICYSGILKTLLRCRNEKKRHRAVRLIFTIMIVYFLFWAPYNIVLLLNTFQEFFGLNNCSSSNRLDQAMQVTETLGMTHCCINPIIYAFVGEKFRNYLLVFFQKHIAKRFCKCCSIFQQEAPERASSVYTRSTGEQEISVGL

The target in this assay is recombinant human CCR5 receptor (Homo sapiens, UniProt P51681). The assay can be described thus: in vitro radioligand binding assay: inhibition of the binding of iodinated MIP-1α. The note with it: membranes from Chinese hamster ovary cells expressing CCR5; 0.1 nM iodinated MIP-1α; average if tested more than once.
On to `CCN(C(=O)Cc1ccc(S(C)(=O)=O)cc1)C1CCN(CCC(c2ccccc2)N2CCN(C(=O)c3ccccc3)CC2)CC1` (centres unmarked), for which the Pic50 is reported as 7.84. For the compound `CCN(C(=O)Cc1ccc(S(C)(=O)=O)cc1)C1CCN(CCC(c2ccccc2)C2CCN(C(=O)c3ccc(Cl)cc3)CC2)CC1` (centres unmarked), the Pic50 was 8.78.

As to `CCN(C(=O)Cc1ccc(S(C)(=O)=O)cc1)C1CCN(CCC(c2ccccc2)N2CCN(S(=O)(=O)CC)CC2)CC1` (centres unmarked), the Pic50 is given as 7.84. Turning to `CCN(C(=O)Cc1ccc(S(C)(=O)=O)cc1)C1CCN(CCC(c2cccc(F)c2)N2CCN(c3ccc(F)cc3)CC2)CC1` (centres unmarked), the Pic50 was determined as 8.37. Turning to `CCN(C(=O)Cc1ccc(S(C)(=O)=O)cc1)C1CCN(CCC(c2ccccc2)N2CCN(S(=O)(=O)c3ccccc3)CC2)CC1` (centres unmarked), the Pic50 was found to be 8.0. In the case of `CCN(C(=O)Cc1ccc(S(C)(=O)=O)cc1)C1CCN(CCC(c2ccccc2)C2CCN(S(=O)(=O)CC)CC2)CC1` (centres unmarked) it was 8.9. With `CCN(C(=O)NCc1ccc(S(C)(=O)=O)cc1)C1CCN(CCC(c2ccccc2)N2CCN(S(=O)(=O)CC)CC2)CC1` (centres unmarked), the Pic50 was 8.25. In the case of `CCN(C(=O)Cc1ccc(S(C)(=O)=O)cc1)C1CCN(CCC(c2cccc(F)c2)C2CCN(C(=O)Nc3ccccc3)CC2)CC1` (centres unmarked) it was 8.2; in that of `CCN(C(=O)Cc1ccc(S(C)(=O)=O)cc1)C1CCN(CCC(c2cccc(F)c2)C2CCN(Cc3ccncc3)CC2)CC1` (centres unmarked), 8.85. For the compound `CCN(C(=O)Cc1ccc(S(C)(=O)=O)cc1)C1CCN(CCC(c2ccccc2)C2CCN(Cc3ccccc3)CC2)CC1` (centres unmarked), the Pic50 came to 8.05.

`CCN(C(=O)Cc1ccc(S(C)(=O)=O)cc1)C1CCN(CCC(c2ccccc2)N2CCC(C)CC2)CC1` (centres unmarked): the Pic50 is 6.47. Under `CCN(C(=O)Cc1ccc(S(C)(=O)=O)cc1)C1CCN(CCC(c2ccccc2)C2CCN(S(=O)(=O)c3ccccc3)CC2)CC1` (centres unmarked) stands 9.2. Regarding `CCN(C(=O)Cc1ccc(S(C)(=O)=O)cc1)C1CCN(CCC(c2ccccc2)N2CCN(c3ccccc3)CC2)CC1` (centres unmarked), the Pic50 is recorded as 8.3. Regarding `CCN(C(=O)Cc1ccc(S(C)(=O)=O)cc1)C1CCN(CCC(c2ccccc2)N2CCN(S(=O)(=O)c3cccs3)CC2)CC1` (centres unmarked), the Pic50 is recorded as 8.63.
